Test [1] concerns the target T1, Acetylcholinesterase (Homo sapiens, UniProt P22303). The test can be described thus: Inhibition of recombinant human AChE after 10 mins by Ellman assay.
For test [2], the target named is T1, Acetylcholinesterase. The test can be described thus: Inhibition of recombinant human AChE after 60 mins by Ellman assay.
Test [3] is described as follows: Inhibition of recombinant Anopheles gambiae AChE G119S mutant after 60 mins by Ellman assay. Background: In Ellman's method for cholinesterases, released thiocholine reacts with DTNB.

By UniProt entry, the sequences of proteins in these tests, tags left out. Where a name states a change or a piece, a line headed by the entry shows the natural chain unless it says otherwise.
UniProt P22303: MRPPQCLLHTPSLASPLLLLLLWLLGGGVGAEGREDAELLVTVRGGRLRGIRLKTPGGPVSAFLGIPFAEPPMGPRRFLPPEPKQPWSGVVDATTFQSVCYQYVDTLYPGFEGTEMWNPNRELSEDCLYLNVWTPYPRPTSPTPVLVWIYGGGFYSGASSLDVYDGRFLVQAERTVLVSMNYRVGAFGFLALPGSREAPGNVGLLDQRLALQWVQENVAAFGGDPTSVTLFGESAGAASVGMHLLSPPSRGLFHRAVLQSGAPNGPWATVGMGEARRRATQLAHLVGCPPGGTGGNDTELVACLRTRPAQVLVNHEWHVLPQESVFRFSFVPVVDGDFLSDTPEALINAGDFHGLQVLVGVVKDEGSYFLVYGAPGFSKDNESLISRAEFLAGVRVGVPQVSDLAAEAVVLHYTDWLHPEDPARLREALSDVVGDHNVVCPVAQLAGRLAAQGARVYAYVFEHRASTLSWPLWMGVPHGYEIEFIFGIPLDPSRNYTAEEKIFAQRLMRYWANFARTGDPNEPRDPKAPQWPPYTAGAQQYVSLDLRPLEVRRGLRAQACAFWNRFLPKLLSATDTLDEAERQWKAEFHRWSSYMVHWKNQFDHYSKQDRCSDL

Each structure is given as a SMILES string.

The term IC50 denotes the point on the concentration scale where inhibition reaches its midpoint.

Turning to `CC(C)(C)c1cccc(C(=O)CF)c1`, the IC50 on Acetylcholinesterase [1] is 578 nM; on Acetylcholinesterase [2], 715 nM; in test [3], more than 10000 nM.

The values above are taken from ChEMBL document CHEMBL3621126, “Difluoromethyl ketones: Potent inhibitors of wild type and carbamate-insensitive G119S mutant Anopheles gambiae acetylcholinesterase” (Bioorg Med Chem Lett, 2015).
